Values quoted from earlier work as cited in patent publication US8741957B2, “Alpha-aminoamide derivatives useful in the treatment of cognitive disorders” (priority 2006, dated 2014).

System: models of cerebral ischemia and PD
Details: cited from earlier work

SMILES: Nc1nc2ccc(OC(F)(F)F)cc2s1 [riluzole]
- neuroprotection: neuroprotective
